System: resistant tumor cells
Test: Ex-vivo medulloblastoma proliferation assay
Assay type: cell-based, mouse
Conditions: cells freshly isolated from resistant tumors

Q: Which “growth of resistant tumor cells upon exposure” value does the source give for `CC1=C2C[C@H]3[C@@H](CC=C4C[C@@H](O)CC[C@@]43C)[C@@H]2CC[C@]12O[C@@H]1C[C@H](C)CN[C@H]1[C@H]2C` [cyclopamine] here?
A: The value was “largely unaffected”.

Reference: article PMC3422576 (Science translational medicine, 2010)
